Sequences of proteins named here, by UniProt entry; tags and fusion partners are left off.
Importin subunit beta-1 (Homo sapiens), Q14974, UniProt Q14974, whole entry, looked up: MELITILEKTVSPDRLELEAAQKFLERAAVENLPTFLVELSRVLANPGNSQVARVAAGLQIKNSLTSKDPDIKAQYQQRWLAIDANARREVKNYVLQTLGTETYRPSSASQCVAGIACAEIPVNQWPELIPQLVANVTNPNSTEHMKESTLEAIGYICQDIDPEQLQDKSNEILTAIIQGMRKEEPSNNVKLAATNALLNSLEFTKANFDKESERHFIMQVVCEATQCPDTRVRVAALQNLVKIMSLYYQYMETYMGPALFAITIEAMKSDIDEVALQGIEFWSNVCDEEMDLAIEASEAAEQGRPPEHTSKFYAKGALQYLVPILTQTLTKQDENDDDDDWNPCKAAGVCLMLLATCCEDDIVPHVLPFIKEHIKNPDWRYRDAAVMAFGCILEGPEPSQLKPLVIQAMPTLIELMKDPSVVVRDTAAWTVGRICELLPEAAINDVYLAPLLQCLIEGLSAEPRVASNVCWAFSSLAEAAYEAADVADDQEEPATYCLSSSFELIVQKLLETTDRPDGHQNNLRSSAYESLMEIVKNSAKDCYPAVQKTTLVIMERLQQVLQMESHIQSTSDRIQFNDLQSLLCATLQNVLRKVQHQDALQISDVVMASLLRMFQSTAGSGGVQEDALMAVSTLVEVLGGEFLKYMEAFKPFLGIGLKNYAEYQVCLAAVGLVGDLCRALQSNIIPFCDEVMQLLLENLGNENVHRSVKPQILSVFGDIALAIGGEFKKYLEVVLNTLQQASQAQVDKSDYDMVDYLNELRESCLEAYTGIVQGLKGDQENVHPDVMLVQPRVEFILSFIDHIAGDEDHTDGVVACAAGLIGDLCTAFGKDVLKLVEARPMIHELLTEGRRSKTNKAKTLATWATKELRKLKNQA

# Screening results: PubChem, National Center for Advancing Translational Sciences (NCATS)
# CCT chaperon mod: High-Throughput Screening for Modulators of Cytosolic Chaperonin Activity; purified chaperonin ATPase assay, HTRF ADP detection, 30 min; activity change, % (no concentration beside the values), hits read low; 360,000 tested, 0.3% active; in the data active = activity change below about -30%; also: % is scaled to controls: 0 for no effect and ±100 for the full control effect
#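 TRiC (40 or 20 nM final, by batch activity) in 30 mM Tris pH 7.4, 100 mM KCl, 5 mM MgCl2, 1 mM DTT was treated with compound at 76 uM single dose, then 10 uM ATP, 30 min at 37 °C. ADP was read by HTRF Transcreener.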
# Mm-Cpn inhibitor: Inhibitors of TCP-1 ring complex (TRiC) of Methanococcus maripaludis (MmCpn): qHTS; Chaperonin Mm-Cpn (Methanococcus maripaludis); purified Mm-Cpn ATPase, ADP Transcreener TR-FRET; Potency, µM (highest dose often 76.9 µM), for inactives: top-dose activity, negative = inhibition, most hits filed as inhibitors; 330,000 tested, 0.031% active; AID 504842, 2011; active = well fitted curve in the direction sought with a large enough effect; inconclusive = small, poorly fitted or top-dose-only effect, or another doubt; inactive = no such curve, though single readings can be large; an effect the other way counts as inactive or inconclusive; also: potency is read from the fitted curve at half-maximal effect; % is scaled to controls: 0 for no effect and ±100 for the full control effect; nearly all actives have a fitted effect of over 80% in size
#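 25 nM Mm-CPN + cpd, 10 min 37°C; + 10 uM ATP, 30 min 37°C; buffer 30 mM Tris pH 7.4, 100 mM KCl, 5 mM MgCl2, 1 mM DTT; Transcreener ADP HTRF detection 30 min RT.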
# Rango complex inh: qHTS Assay for Inhibitors of Rango (Ran-regulated importin-beta cargo) - Importin beta complex formation | Importin subunit beta-1 (Homo sapiens), Q14974 | Rango CFP/YFP FRET sensor + importin beta, 45 min | Potency, µM (series often up to 92.2 µM), for the others: at the highest dose inhibition of complex formation | 340,000 tested, 0.031% active | AID 540263, 2011;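 also: potency is read from the fitted curve at half-maximal effect; 0% = DMSO wells and 100% = buffer wells lacking importin beta; nearly all actives have a fitted effect of over 15% in size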
#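 FRET biosensor (snurportin 1 IBB flanked by EYFP and cerulean), 50 nM, with compound 5 min, then 0.125 microM importin beta in PBS, 1 mM DTT, 0.02% Tween-20, 0.1% BSA. CFP/YFP ratio read after 45 min at room temperature; pre-read flags interference.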
# Integrin act MD: qHTS for Activators of Integrin-Mediated Alleviation for Muscular Dystrophy; alpha7betagal myoblasts, beta-gal FDG fluorescence, 48 h; Potency, µM (titrated, usually from 38.3 µM), inactives show at the top dose activation, most hits filed as activators; 350,000 tested, 0.064% active; AID 624291, 2012; active = well fitted curve in the direction sought with a large enough effect; inconclusive = small, poorly fitted or top-dose-only effect, or another doubt; inactive = no such curve, though single readings can be large; an effect the other way counts as inactive or inconclusive;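 also: potency is read from the fitted curve at half-maximal effect; 100% = response of the positive control SU9516; nearly all actives have a fitted effect of over 60% in size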
#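 alpha7betagal+/- myoblasts (passage 13, 250/well) treated 48 h at 37C with compounds at 1:260 dilution of DMSO stock. Lysed, then beta-galactosidase activity read as FDG fluorescence (ex 480/em 540) after 30 min, with pre-read for autofluorescence.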
# Rango release inh: qHTS Assay for Inhibitors of RanGTP induced Rango (Ran-regulated importin-beta cargo) - Importin beta complex dissociation. Biochemical FRET Rango-importin beta, RanGTP-induced dissociation. Snurportin-1 (Homo sapiens) + GTP-binding nuclear protein Ran (Homo sapiens) + Importin …. Potency, µM (highest dose often 46.1 µM), inactives show at the top dose activity change, negative = inhibition. 340,000 tested, 0.071% active. AID 540253, 2011; also: potency is read from the fitted curve at half-maximal effect; % of control where 0% means no effect; nearly all actives have a fitted effect of over 45% in size
#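 Rango/importin beta premix (0.1/0.25 uM final), PBS + 1 mM DTT + 0.02% Tween-20 + 0.1% BSA; cpd 5 min RT; FRET pre-read; + RanGTP-RCC1 (0.6 uM Ran, 2 mM GTP, 0.2 uM RCC1); 45 min RT; FRET post-read, ex 430, em 486/530 nm.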
# The depositor's hits bear a star; ? = inconclusive; · = not tested or not shown; [ ] = another dose, or the depositor's remark. An excerpt weighted towards active compounds, which were near 0.51% of everything screened. Unless noted, calls follow the shape of the full dose curve.
item | SMILES | CCT chaperon mod | Mm-Cpn inhibitor | Rango complex inh
1 | Cc1ccc(NC(=O)CN2C(=O)NC(C)(c3ccccc3)C2=O)c(C)c1 (stereo not drawn) | -60* | 0% | -1%
2 | COc1ccc(CC(=O)Nc2c(C(=O)N3CCN(c4ncccn4)CC3)oc3ccccc23)cc1 | -68* | -5% | 0%
3 | COc1ccc(CC(=O)Nc2c(C(=O)N3CCN(c4ncccn4)CC3)oc3ccccc23)cc1OC | -3 | 1% | 0%
4 | Cc1c(C(=O)NCc2ccc3c(c2)OCCO3)sc(=O)n1Cc1cccc(C(F)(F)F)c1 | 1 | · | ·
5 | O=c1c(-c2ccccc2)coc2c(CN3CCCC3)c(O)ccc12 | -3 | 45µM* | 0%
6 | COc1ccccc1-c1coc2c(CN3C(C)CCCC3C)c(O)ccc2c1=O (stereo not drawn) | -1 | -2% | -1%
7 | CSc1ccc(-c2cc3c(c4c2ccn4C)C2CCC3O2)cc1 (stereo not drawn) | -1 | · | ·
8 | O=C(Nc1ccccc1F)c1ccc2sc([C@@H]3O[C@H](CO)[C@H](O)[C@H](O)[C@H]3O)nc2c1 | -7 | · | ·

item | Integrin act MD | Rango release inh
1 | -8% | -17%
2 | 22% | 6%
3 | 8% | 2%
4 | · | ·
5 | 11% | 2%
6 | 2.2µM* | -9%
7 | · | ·
8 | · | ·

# (listing goes on)
item | SMILES | CCT chaperon mod | Mm-Cpn inhibitor | Rango complex inh
9 | CCCCCCCCCCCCCCCC[N+](C)(C)CCN(Cc1ccc(OC)cc1)c1ncccn1 | -1 | -7% | 65µM*
10 | COc1ccc(CN(CCN(C)C)c2ccccn2)cc1 | 0 | 1%[15.4 µM] | ?
11 | CCOCCCNC(=O)c1cn(CC)c2ccc(S(=O)(=O)N3CCCC3)cc2c1=O | -52* | 2% | -2%
12 | CC(NC(=O)c1cn(C)c2ccc(S(=O)(=O)N3CCCC3)cc2c1=O)c1ccccc1 (stereo not drawn) | 0 | 1% | 0%
13 | CCN(CC)CCNC(=O)c1cn(CC)c2ccc(S(=O)(=O)N3CCOCC3)cc2c1=O | -2 | -2% | 0%
14 | CC(C)CCNC(=O)c1cn(C)c2ccc(S(=O)(=O)N3CCCC3)cc2c1=O | 1 | -3% | 2%
15 | CCCCN(CCCC)CCNC(=O)c1cn(CC)c2ccc(S(=O)(=O)N3CCCC3)cc2c1=O | -82* | -6% | 4%
16 | CCOCCCNC(=O)c1cn(CC)c2ccc(S(=O)(=O)N3CCC(C)CC3)cc2c1=O | -3 | 1% | 1%

item | Integrin act MD | Rango release inh
9 | · | 6%
10 | · | 17%
11 | -16% | 3%
12 | 2.8µM* | 24%
13 | -19% | 8%
14 | 8% | 3%
15 | 25% | 0%
16 | ? | -2%

# New compounds follow.
item | SMILES | CCT chaperon mod | Mm-Cpn inhibitor | Rango complex inh
17 | CCCCN(C)CCCNC(=O)c1cn(CC)c2ccc(S(=O)(=O)N3CCc4ccccc4C3)cc2c1=O | -59* | -5% | 17%
18 | COc1cc(-c2cnc3c(NC=O)cc(-c4ccsc4)cn23)cc(OC)c1OC | 0 | · | ·
19 | CCCCN(C)CCCNC(=O)c1cn(C)c2ccc(S(=O)(=O)N(C)C3CCCCC3)cc2c1=O | -54* | 3% | ?
20 | CCCCN(C)c1c(C)nc2ccc(C(=O)NCCCn3ccnc3)cn12 | 2 | · | ·
21 | NC(=O)Cn1c(O)c(N=NC(=O)CNC(=O)/C=C/c2ccccc2)c2ccccc21 | -73* | 1% | -1%
22 | CCCn1c(O)c(N=NC(=O)CNC(=O)/C=C/c2ccc(OC)cc2)c2ccccc21 | 0 | 2% | 2%
23 | Cc1cc(=O)[nH]c(=S)n1-c1ccccc1 | -34* | 4% | 1%
24 | CCCS(=O)(=O)NC(=O)C1(C)CCCN(C(=O)c2c(OC)cccc2OC)C1 (stereo not drawn) | -2 | · | ·

item | Integrin act MD | Rango release inh
17 | -51% | 13%
18 | · | ·
19 | -10% | ?
20 | · | ·
21 | 2% | -1%
22 | -1% | 3%
23 | 13% | 25%
24 | · | ·

# Some of the entries so far, as tab-separated lines:
nr	molecule	CCT chaperon mod	Mm-Cpn inhibitor	Rango complex inh	Integrin act MD	Rango release inh
21	NC(=O)Cn1c(O)c(N=NC(=O)CNC(=O)/C=C/c2ccccc2)c2ccccc21	-73*	1%	-1%	2%	-1%
20	CCCCN(C)c1c(C)nc2ccc(C(=O)NCCCn3ccnc3)cn12	2	·	·	·	·
22	CCCn1c(O)c(N=NC(=O)CNC(=O)/C=C/c2ccc(OC)cc2)c2ccccc21	0	2%	2%	-1%	3%
17	CCCCN(C)CCCNC(=O)c1cn(CC)c2ccc(S(=O)(=O)N3CCc4ccccc4C3)cc2c1=O	-59*	-5%	17%	-51%	13%
23	Cc1cc(=O)[nH]c(=S)n1-c1ccccc1	-34*	4%	1%	13%	25%

# New compounds follow
item | SMILES | CCT chaperon mod | Mm-Cpn inhibitor | Rango complex inh
25 | CCc1nnc(NC(=O)CCC(=O)N2CCN(Cc3ccc(Cl)cc3)CC2)s1 | -4 | 0% | -1%
26 | CCc1nnc(NC(=O)CSc2nccn2-c2ccccc2)s1 | -38* | 4% | 2%
27 | CCc1nnc(NC(=O)CCC(=O)N2CCN(Cc3ccccc3)CC2)s1 | -93* | 0% | -3%
28 | CCc1nnc(NC(=O)CSc2nnc(-c3ccccc3O)o2)s1 | -56* | 2% | 3%
29 | COc1cccc(C(NC(C)=O)c2nc(-c3ccc4c(c3)OCO4)cs2)c1 (stereo not drawn) | 0 | · | ·
30 | Oc1cc(Nc2ccncc2)cc2cccnc12 | · | -1% | 41µM*
31 | CN(C)CCNC(=O)c1cccc(-c2cccc3nncn23)c1 | -19 | · | ·
32 | Nc1scn[n+]1Cc1cccc2cccnc12 | -1 | 1% | -1%

item | Integrin act MD | Rango release inh
25 | 10% | 4%
26 | 1% | 5%
27 | -22% | -6%
28 | 4% | -8%
29 | · | ·
30 | · | ?
31 | · | ·
32 | -20% | 0%

# Additional results follow.
item | SMILES | CCT chaperon mod | Mm-Cpn inhibitor | Rango complex inh
33 | Cc1cc(C[n+]2ccsc2N)c2ncccc2c1 | 2 | 40µM* | -1%
34 | COCCN(C(=O)CSc1nc2ccc(C)cc2[nH]1)c1c(N)n(Cc2ccccc2)c(=O)[nH]c1=O | -39* | 2% | -3%
35 | CCCNC(=O)C1(C)CCN(C(=O)c2ccc(OC(F)F)cc2)C1 (stereo not drawn) | 0 | · | ·
36 | Cc1ccccc1-n1nc2c(c1NC(=O)C(C)(C)C)CS(=O)(=O)C2 | -43* | 2% | -7%
37 | Cc1ccccc1-n1nc2c(c1NC(=O)C(C)C)CS(=O)(=O)C2 | 0 | 0% | -1%
38 | O=C(C[C@H]1C(=O)N(C2CCCCC2)C[C@@H]1c1ccccc1)Nc1ccc(Br)cc1 | -53* | · | ·
39 | CN(C)C1(CN=Cc2cc(Cl)cc([N+](=O)[O-])c2O)CCCCC1 | 1 | 3% | 5%
40 | O=[N+]([O-])c1cc(Cl)cc(/C=N\Nc2ccccn2)c1O | -1 | ? | 4%

item | Integrin act MD | Rango release inh
33 | ? | 9%
34 | 8% | 1%
35 | · | ·
36 | 7% | 5%
37 | 2% | -1%
38 | 23% | ·
39 | 8.9µM* | 0%
40 | -8% | 1%

# Further structures.
item | SMILES | CCT chaperon mod | Mm-Cpn inhibitor | Rango complex inh
41 | Cc1ccc(C(=O)C2=C(O)C(=O)N(c3ncccn3)C2c2ccccc2F)o1 (stereo not drawn) | -66* | -15% | -2%
42 | Cc1cc(OCC(=O)Nc2c(C(C)C)cccc2C(C)C)no1 | 0 | · | ·
43 | CS(=O)(=O)Cc1cccc(C(=O)NN(c2ccccc2)c2ccccc2)c1 | -1 | 1% | 3%
44 | COc1cccc(C(=O)c2c[nH]c(C(=O)NCc3ccco3)c2)c1 | -42* | -1% | 0%
45 | CCNc1c([N+](=O)[O-])c(=O)n(CC)c2ccccc12 | -1 | 1% | -3%
46 | Cn1c(=O)c([N+](=O)[O-])c(NCc2ccccc2)c2ccccc21 | -56* | -5% | -1%
47 | COc1ccc([C@H]2C[C@@H](O)[C@H](n3cc(C4CC4)nn3)CN2C(=O)c2cccs2)cc1 | -1 | · | ·
48 | CCOC(=O)c1sc(=N)n(-c2ccc(OC)cc2)c1C | -2 | -4% | -1%

item | Integrin act MD | Rango release inh
41 | ? | 9%
42 | 6% | ·
43 | 13µM* | -10%
44 | 19% | 11%
45 | -49% | 1%
46 | -4% | -12%
47 | 4% | ·
48 | 2µM* | 2%
